The source of these data is patent US20080176810A1, “Use of 3, 4', 5-Trihydroxy-Stilbene-3-Beta-D-glucoside in Prepartion of Medicines For Treating and/or Preventing Ischemic Heart Disease” (SHENZHEN NEPTUNUS PHARMACEUTICAL CO., LTD., priority 2004, published 2008).

Usually LD50 stands for the dose at which mortality reaches 50%. Read a high LD50 as lower toxicity.

Several values for one entry are separate records, joined by “and”; a condition that tells them apart may be missing. Identical values can stand only once.

Data set [1] deals with chronic myocardial ischemia. As to the kind of experiment: Chronic myocardial ischemia in rats, intragastric administration. The data set is classed as in vivo, SD rats. The following applies: TSG 20 mg/kg intragastric, 6 weeks. As for the experimental part: (1) Operation and Coronary artery ligation of Animal: 60 male SD rats, divided into two groups: 15 in sham operation group and 45 in operation group, were immobilized on their backs by anesthesia of urethane ip at the dose of 100 mg/kg. Electrocardiograph (ECG-6851C, made by Shanghai Photoelectrical & Electronic Medical Apparatus Co., Ltd.) was used to record II lead electrocardiogram. Tracheal intubation was performed and connected into an artificial respirator and thoracotomy was performed at the fourth intercostal space of left sternal border after the skin sterilization. With exposure of the heart, the ligation was conducted at 3-4 mm of the root of left anterior descending coronary artery. ECG was monitored during the whole process and the graph showing significant elevation and depression of ST segment as well as the elevated T-wave amplitude was viewed as the indexes for the success of coronary artery ligation. After the ligation, thorax was closed and the air was drawn out. Regular feeding was continued after the operation, and the intramuscular injection of Penicillin was performed to prevent infection in 1 week after the operation. Thoracotomy was performed in sham operation group without coronary artery ligation. […]
(1) Evaluation of therapeutic effect: Therapeutic effect was evaluated at the 12th week after the operation. […]

The next data set deals with Kunming mice. The experiment in a line: Acute toxicity test of mice, intravenous injection. The note with it: tail intravenous injection.

Turning to “3,4′,5-trihydroxy-stilbene-3-β-D-glucoside [TSG]”, in data set [1], the Infarct size ratio was 5.9 ± 1.2^ΔΔ %. Moreover, the median lethal dose (LD50) in the data set on Kunming mice is 648.94 mg/kg and 640 mg/kg.
